Laboratory results taken from patent US20230173083A1, “ALBUMIN-BINDING PRODRUG FOR PREVENTING OR TREATING CANCER AND PHARMACEUTICAL COMPOSITION INCLUDING THE SAME” (KOREA INSTITUTE OF SCIENCE AND TECHNOLOGY, priority 2021, published 2023).

Sequences of proteins named here, by UniProt entry; tags and fusion partners are left off. Residues count along the entry.
UniProt P02768, 25-609: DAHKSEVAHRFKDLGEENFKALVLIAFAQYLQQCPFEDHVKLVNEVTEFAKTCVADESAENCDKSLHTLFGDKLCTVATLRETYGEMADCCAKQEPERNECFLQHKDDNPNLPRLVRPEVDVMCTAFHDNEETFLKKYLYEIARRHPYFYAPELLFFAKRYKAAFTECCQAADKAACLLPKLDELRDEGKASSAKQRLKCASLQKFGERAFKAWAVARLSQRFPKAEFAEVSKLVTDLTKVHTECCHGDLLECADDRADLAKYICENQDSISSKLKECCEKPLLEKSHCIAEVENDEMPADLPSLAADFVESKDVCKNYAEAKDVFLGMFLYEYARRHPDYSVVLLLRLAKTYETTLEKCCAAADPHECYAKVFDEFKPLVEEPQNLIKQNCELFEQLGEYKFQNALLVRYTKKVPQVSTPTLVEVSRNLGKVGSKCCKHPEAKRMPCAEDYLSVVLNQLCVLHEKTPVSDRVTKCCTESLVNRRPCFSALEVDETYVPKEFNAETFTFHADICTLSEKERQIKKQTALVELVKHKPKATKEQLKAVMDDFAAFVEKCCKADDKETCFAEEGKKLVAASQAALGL

Molecular target: HSA (Homo sapiens, UniProt P02768)
Assay: Formation of albumin-prodrug conjugate with HSA (SDS-PAGE, MALDI-TOF, RP-HPLC)
Format: binding
Conditions: 1% HSA in PBS, room temperature, 1 h
Method: To this end, a PBS solution (1 ml) containing 1% albumin (HSA, MSA or BSA) or 1% blocked albumin (blocked HSA, MSA or BSA) was added to 1 mg of the prodrug (Al-ProD) synthesized in Example 1 and incubated at room temperature for various times (0 h, 5 min, and 1 h). After completion of the incubation, samples were analyzed via SDS-PAGE and MALDI-TOF mass spectrometry.
τ-maleimido butyric acid was added to 1% albumin (HSA, MSA or BSA) for 1 h to block the thiol group of the albumin. In the “Blocking” row in the table of FIG. 5, the plus signs (+) represent the use of blocked albumin.

COc1cccc2c1C(=O)c1c(O)c3c(c(O)c1C2=O)C[C@@](O)(C(=O)CO)C[C@@H]3O[C@H]1C[C@H](N)[C@H](O)[C@H](C)O1 [free DOX, doxorubicin, reference compound]
formation of conjugate with HSA (SDS-PAGE band shift to 50-75 kDa): did not form conjugates with any albumin
